Tests used:
[1] = tested on: H2122 cells; test: H2122 tumor bearing mice, single agents and combination; assay type: in vivo, nude/nude mice; conditions: Compound 478 100 mg/kg, RMC-4550 30 mg/kg
Procedure: (§1) Immunocompromised nude/nude mice are inoculated in the right hind flank with cells or patient derived tumor samples harboring a KRas G12C mutation. When tumor volumes reach between 200-400 mm^3 in size, the mice are divided into four groups of 5-12 mice each. The first group is administered vehicle only. […] The fourth group is administered the single agent dose of the KRas G12C inhibitor in combination with the single agent dose of the SHP-2 inhibitor. […] Tumor volumes are measured using a caliper every two-three days and tumor volumes are calculated by the formula: 0.5×[…].
Similarly, 25 nude/nude mice were inoculated in the right hind limb with 5×10^6 H2122 cells.

[2] = tested on: SW1573 cells; test: SW1573 tumor bearing mice, single agents and combination; assay type: in vivo, nude/nude mice; conditions: Compound 478 100 mg/kg, RMC-4550 30 mg/kg
Procedure: as §1
20 nude/nude mice per study were inoculated in the right hind limb with 5×10^6 SW1573 cells, KYSE410 cells or H358 cells.

Question: Which “Average Tumor Volume” value ([1]; Study Day 0, p.o. daily, 5 mice) does the source give for `C=C(F)C(=O)N1CCN(c2nc(OC[C@@H]3CCCN3C)nc3c2CCN(c2cccc4cccc(Cl)c24)C3)C[C@@H]1CC#N` [Compound 478] here?
Answer: The value was 347 mm^3.

Question: And the “Average Tumor Volume” value ([1]; Study Day 4, p.o. daily)?
Answer: The value was 369 mm^3.

Question: What about the “Average Tumor Volume” value ([1]; Study Day 6, p.o. daily) of the same compound?
Answer: The value was 379 mm^3.

Question: What about the “Average Tumor Volume” value ([1]; Study Day 8, p.o. daily) of the same compound?
Answer: The value was 387 mm^3.

Question: What about the “Average Tumor Volume” value ([1]; Study Day 13, p.o. daily) of the same compound?
Answer: The value was 391 mm^3.

Question: And the “Average Tumor Volume” value ([1]; Study Day 15, p.o. daily)?
Answer: Its value is 396 mm^3.

Question: And the “Average Tumor Volume” value ([1]; Study Day 18, p.o. daily)?
Answer: The value was 405 mm^3.

Question: And the “Average Tumor Volume” value ([1]; Study Day 24, p.o. daily)?
Answer: The value was 427 mm^3.

Question: What about the “Average Tumor Volume” value ([1]; Study Day 27, p.o. daily) of the same compound?
Answer: The value was 444 mm^3.

Question: What about the “Average Tumor Volume” value ([1]; Study Day 29, p.o. daily) of the same compound?
Answer: The value was 455 mm^3.

Question: What about the “Average Tumor Volume” value ([2]; Study Day 11, p.o. daily) of the same compound?
Answer: The value was 346 mm^3.

Question: And the “Average Tumor Volume” value ([2]; Study Day 16, p.o. daily)?
Answer: The value was 379 mm^3.

Source: US12377101B2, “Combination therapies” (Mirati Therapeutics, Inc., priority 2018, dated 2025)
